Laboratory results from article PMC8640019 (Nature Communications, 2021).
Where “and” joins values, the source holds several entries; their conditions need not be identical. Equal values may be shown once.

B1: Cullin5 N-terminal domain (Cul5^1-384) (domain or fragment)
chain: MATSNLLKNKGSLQFEDKWDFMRPIVLKLLRQESVTKQQWFDLFSDVHAVCLWDDKGPAKIHQALKEDILEFIKQAQARVLSHQDDTALLKAYIVEWRKFFTQCDILPKPFCQLEITLMGKQGSNKKSNVEDSIVRKLMLDTWNESIFSNIKNRLQDSAMKLVHAERLGEAFDSQLVIGVRESYVNLCSNPEDKLQIYRDNFEKAYLDSTERFYRTQAPSYLQQNGVQNYMKYADAKLKEEEKRALRYLETRRECNSVEALMECCVNALVTSFKETILAECQGMIKRNETEKLHLMFSLMDKVPNGIEPMLKDLEEHIISAGLADMVAAAETITTDSEKYVEQLLTLFNRFSKLVKEAFQDDPRFLTARDKAYKAVVNDATIFK

Experiments:
Assay in all cases: ITC; 298 K, Microcal ITC200; 25 mM Hepes pH 7.5, 150 mM NaCl, 2 mM TCEP; typically 12 x 3.25 µL of 240 µM peptide (syringe) into 30 µM SOCS-EloB/C (cell); where a second peptide or Cullin5 NTD stands in the cell the protein was with it beforehand (25 µM SOCS2-EloB/C pre-incubated with 60 µM F3); single-site fit
Settings in all cases: both partners purified
SOCS2^32-198-EloB/C [1] = target: T1, SOCS2^32-198-EloB/C (human, UniProt O14508 32-198; Q15370 1-118; Q15369 17-112)
T1 construct: human Elongin C, residues 17-112; also called SOCS2-Elo B/C; SOCS2/BC; source: E. coli BL21 (R3), co-expressed with Elongin BC, purified (Glutathione Sepharose, TEV cleavage, SEC); not shown: GST, N-terminal, cleaved; copies: + +

SOCS2^32-198-EloB/C [2] = target: T1, SOCS2^32-198-EloB/C; remark: listed apart in the source
SOCS2-Elo B/C + F3 [3] = target: T2, SOCS2-Elo B/C + F3 (human, UniProt O14508 32-198; Q15370 1-118; Q15369 17-112)
T2 construct: human Elongin C, residues 17-112; F3 peptide; ITC: 25 µM SOCS2-EloB/C pre-incubated with 60 µM F3; SPR: 100 nM SOCS2 with 10 µM F3; also called SOCS2 + F3; SOCS2/F3 complex; not shown: GST, N-terminal, cleaved; copies: + + +

SOCS2-Elo B/C + F3 [4] = target: T2, SOCS2-Elo B/C + F3; remark: listed apart in the source
SOCS2^32-198-EloB/C [5] = target: T1, SOCS2^32-198-EloB/C; remark: listed apart in the source

Row | Binder | stoichiometry N (SOCS2^32-198-EloB/C [1]) | Kd (SOCS2^32-198-EloB/C [2]) [µM] | Kd (SOCS2-Elo B/C + F3 [3]) [µM] | Ka (SOCS2-Elo B/C + F3 [4]) | Kd (SOCS2-Elo B/C + F3 [4]) | Ka (SOCS2^32-198-EloB/C [5]) | Kd (SOCS2^32-198-EloB/C [5]) | stoichiometry N (SOCS2^32-198-EloB/C [5])
1 | B1 | 0.83 |  |  |  |  |  |  | 
2 | STASTVQYSTVVHSG (phosphotyrosine at 757) [gp130 pY757 peptide] |  | 5.8 | 0.51 | 2.2e+06 M⁻¹ and 1.8e+06 M⁻¹ | 0.56 µM and 0.45 µM | 176000 M⁻¹ and 169000 M⁻¹ | 5.68 µM and 5.92 µM | 0.45 and 0.263
